From ChEMBL document CHEMBL1153880, “Synthesis and adrenolytic activity of 1-(1H-indol-4-yloxy)-3-{[2-(2-methoxyphenoxy)ethyl]amino}propan-2-ol and its enantiomers. Part 1” (Eur J Med Chem, 2009)

Chains of the proteins cited; added tags and fusions are not shown. Lines headed by an entry give the natural chain unless they say otherwise; changes in a name come on top.
UniProt P22086: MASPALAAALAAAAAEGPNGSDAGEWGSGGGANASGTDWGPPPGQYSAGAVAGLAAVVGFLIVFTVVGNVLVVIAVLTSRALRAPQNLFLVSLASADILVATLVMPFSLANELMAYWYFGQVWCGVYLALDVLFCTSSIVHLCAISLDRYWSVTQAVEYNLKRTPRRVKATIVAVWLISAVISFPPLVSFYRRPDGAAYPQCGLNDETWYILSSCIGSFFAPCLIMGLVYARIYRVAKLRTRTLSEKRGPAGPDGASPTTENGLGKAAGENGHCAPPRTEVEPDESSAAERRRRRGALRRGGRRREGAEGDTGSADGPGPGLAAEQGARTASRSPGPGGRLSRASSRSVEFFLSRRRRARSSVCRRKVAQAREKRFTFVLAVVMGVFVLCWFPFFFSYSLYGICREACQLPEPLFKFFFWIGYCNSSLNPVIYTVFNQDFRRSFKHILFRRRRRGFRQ
UniProt P19328: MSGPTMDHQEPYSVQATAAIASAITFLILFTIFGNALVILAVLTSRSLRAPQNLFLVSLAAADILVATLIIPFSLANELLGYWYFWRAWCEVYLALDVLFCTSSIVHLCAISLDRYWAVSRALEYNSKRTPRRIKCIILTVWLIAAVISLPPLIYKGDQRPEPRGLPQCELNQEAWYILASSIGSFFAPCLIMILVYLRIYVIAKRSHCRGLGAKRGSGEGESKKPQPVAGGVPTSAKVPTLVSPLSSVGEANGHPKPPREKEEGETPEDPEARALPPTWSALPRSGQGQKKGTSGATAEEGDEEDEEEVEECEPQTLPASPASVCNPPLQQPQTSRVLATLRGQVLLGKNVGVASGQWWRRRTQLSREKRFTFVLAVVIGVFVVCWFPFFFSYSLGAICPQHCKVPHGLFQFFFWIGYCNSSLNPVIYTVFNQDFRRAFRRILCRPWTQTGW
UniProt P22909: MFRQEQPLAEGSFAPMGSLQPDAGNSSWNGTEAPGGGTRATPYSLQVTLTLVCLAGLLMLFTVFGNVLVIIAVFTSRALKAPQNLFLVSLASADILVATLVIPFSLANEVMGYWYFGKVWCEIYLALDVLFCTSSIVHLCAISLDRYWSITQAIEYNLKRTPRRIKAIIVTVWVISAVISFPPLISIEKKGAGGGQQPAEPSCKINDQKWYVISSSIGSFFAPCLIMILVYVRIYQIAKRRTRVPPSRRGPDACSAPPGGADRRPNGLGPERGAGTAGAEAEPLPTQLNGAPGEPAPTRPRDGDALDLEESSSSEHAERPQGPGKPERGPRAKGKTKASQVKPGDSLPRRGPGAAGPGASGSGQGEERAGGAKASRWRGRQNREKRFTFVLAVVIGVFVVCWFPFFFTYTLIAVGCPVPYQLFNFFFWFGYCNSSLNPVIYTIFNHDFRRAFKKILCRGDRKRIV

Biological target: Adrenergic receptor alpha-2 (Rattus norvegicus, UniProt P22086+P19328+P22909)
Assay: Displacement of [3H]clonidine from alpha2 adrenergic receptor in rat cerebral cortex by liquid scintillation method
Format: tissue-based

`COc1ccccc1OCCNCC(O)COc1cccc2[nH]c3ccccc3c12` (stereo unspecified) [CARVEDILOL] gave a Ki of 3.4 nM.
